This note sets out measurements from patent publication US20090239949A1, “Polar Hydrophilic Prodrugs of Amphetamine and Other Stimulants and Processes for Making and Using the Same” (priority 2007, published 2009).

The nature of this data set: Oral pharmacokinetic study of hArg-Amp vs Lys-Amp, plasma d-amphetamine by ELISA (Example 12). The conditions noted are these: oral gavage, […] d-amphetamine freebase equivalent, n=5.

SMILES strings stand for the structures.

Consider `C[C@@H](Cc1ccccc1)NC(=O)[C@@H](N)CCCCN=C(N)N.Cl.Cl` [hArg-Amp, l-homoarginine-d-amphetamine dihydrochloride], for which the Tmax is 4 h.
